# Test results published in ChEMBL document CHEMBL1156112, “Discovery of 3-(1H-indol-3-yl)-4-[2-(4-methylpiperazin-1-yl)quinazolin-4-yl]pyrrole-2,5-dione (AEB071), a potent and selective inhibitor of protein kinase C isotypes” (J Med Chem, 2009).
# Protein sequences, listed by entry. Tags and fused reporters are not part of them.
# UniProt P05771, whole entry: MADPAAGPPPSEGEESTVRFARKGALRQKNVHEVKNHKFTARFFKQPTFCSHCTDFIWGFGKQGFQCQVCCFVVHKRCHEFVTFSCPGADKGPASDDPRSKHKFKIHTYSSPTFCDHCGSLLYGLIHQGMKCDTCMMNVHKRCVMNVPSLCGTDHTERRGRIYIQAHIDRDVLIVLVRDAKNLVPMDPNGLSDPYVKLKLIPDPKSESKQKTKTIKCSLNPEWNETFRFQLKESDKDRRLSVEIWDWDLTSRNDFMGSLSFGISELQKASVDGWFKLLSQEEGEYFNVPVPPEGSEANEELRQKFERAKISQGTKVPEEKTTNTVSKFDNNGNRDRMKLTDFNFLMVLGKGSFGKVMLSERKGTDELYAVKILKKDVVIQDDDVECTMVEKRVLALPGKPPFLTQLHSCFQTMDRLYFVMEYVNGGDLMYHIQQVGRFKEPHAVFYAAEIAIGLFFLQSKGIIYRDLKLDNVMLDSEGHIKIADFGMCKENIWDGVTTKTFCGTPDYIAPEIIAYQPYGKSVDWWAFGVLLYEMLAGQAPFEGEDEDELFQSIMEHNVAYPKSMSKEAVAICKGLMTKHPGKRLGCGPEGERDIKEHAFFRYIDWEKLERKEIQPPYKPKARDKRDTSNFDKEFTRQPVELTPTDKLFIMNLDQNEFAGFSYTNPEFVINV
# Target: Protein kinase C beta type (Homo sapiens, UniProt P05771)
# Test: Inhibition of PKCbeta1 by SPA
smiles,measurement,value
CN1CCN(c2nc(C3=C(c4c[nH]c5ccccc45)C(=O)NC3=O)c3ccccc3n2)CC1 [SOTRASTAURIN],IC50,2 nM
